Like-named read-outs stand apart in the source and are kept apart here.
Target: BRM (Homo sapiens, UniProt P51531)
Assay: In-cell Western screen of BRM degradation in SW1573 cells (Dmax and DC50)
Type: cell-based

Chains of the proteins cited; added tags and fusions are not shown.
UniProt P51531, whole entry: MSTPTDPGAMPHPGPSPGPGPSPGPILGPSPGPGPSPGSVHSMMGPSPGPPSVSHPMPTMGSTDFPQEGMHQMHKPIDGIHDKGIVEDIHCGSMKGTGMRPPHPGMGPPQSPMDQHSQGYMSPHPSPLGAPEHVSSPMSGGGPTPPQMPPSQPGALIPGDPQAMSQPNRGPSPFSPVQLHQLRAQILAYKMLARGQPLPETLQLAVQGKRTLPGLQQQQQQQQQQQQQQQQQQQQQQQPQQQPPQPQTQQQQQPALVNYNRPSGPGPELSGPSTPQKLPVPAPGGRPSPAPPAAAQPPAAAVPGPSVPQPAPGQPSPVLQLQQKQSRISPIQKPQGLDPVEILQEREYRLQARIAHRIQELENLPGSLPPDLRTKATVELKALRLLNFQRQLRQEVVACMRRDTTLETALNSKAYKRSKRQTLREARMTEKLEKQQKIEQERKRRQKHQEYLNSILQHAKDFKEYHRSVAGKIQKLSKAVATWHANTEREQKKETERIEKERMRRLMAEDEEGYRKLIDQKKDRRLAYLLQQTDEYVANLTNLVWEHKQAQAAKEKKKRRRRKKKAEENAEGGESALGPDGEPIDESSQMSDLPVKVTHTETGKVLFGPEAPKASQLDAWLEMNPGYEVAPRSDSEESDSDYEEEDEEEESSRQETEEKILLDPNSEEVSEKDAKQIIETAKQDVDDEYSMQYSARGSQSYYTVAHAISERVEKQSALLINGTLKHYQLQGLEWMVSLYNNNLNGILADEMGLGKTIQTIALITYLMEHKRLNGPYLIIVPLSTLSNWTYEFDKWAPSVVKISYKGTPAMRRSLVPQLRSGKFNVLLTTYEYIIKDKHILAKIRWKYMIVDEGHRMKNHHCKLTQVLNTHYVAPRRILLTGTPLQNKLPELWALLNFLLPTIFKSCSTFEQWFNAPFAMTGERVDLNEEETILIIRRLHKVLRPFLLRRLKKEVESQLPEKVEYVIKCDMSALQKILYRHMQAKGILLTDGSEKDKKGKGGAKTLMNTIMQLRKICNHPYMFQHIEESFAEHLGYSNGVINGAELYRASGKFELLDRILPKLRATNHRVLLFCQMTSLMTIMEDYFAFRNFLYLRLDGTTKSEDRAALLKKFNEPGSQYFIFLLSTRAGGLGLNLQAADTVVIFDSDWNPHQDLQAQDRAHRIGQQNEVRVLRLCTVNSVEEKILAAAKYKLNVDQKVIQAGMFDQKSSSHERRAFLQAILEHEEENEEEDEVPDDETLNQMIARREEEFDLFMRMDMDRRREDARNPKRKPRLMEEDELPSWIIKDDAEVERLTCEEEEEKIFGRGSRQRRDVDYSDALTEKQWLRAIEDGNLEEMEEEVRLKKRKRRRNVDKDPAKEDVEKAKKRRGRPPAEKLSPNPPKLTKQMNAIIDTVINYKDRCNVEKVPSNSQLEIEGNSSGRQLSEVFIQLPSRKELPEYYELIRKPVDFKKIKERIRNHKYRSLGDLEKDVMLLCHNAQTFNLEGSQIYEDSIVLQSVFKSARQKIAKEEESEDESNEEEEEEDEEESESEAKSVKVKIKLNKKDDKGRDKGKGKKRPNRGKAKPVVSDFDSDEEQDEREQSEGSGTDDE

Row | Structure (SMILES) | DC50 (read-out: BRM DC50, target protein degradation) [nM] | DC50 (BRM degradation, SW1573 cells) [nM] | Dmax (%) (% degraded) (BRM degradation, SW1573 cells, when tested at the top concentration of between 0.3 and 10 μM)
1 | Cc1ncsc1-c1ccc([C@H](C)NC(=O)[C@@H]2C[C@@H](O)CN2C(=O)[C@H](c2cc(OCC#CC34CC(CN5CC(Oc6cc(N7C8CCC7CN(c7cc(-c9ccccc9O)nnc7N)C8)ccn6)C5)(C3)C4)no2)C(C)C)cc1 | > 30 |  | 
2 | Cc1ncsc1-c1ccc(CNC(=O)[C@@H]2C[C@@H](O)CN2C(=O)[C@@H](NC(=O)COCCOCCOCCOCCn2cc(-c3cc(-c4ccccc4O)nnc3N)cn2)C(C)(C)C)cc1 |  | > 30 | A (A > 75)

From patent US12539292B2, “BRM targeting compounds and associated methods of use” (Arvinas Operations, Inc., priority 2018, dated 2026)
